The target of the test is High affinity choline transporter 1 (Mus musculus, UniProt Q8BGY9). The experiment in a line: In vitro ability to inhibit the transport of [3H]choline in to high affinity choline transport system HAChT.

Protein sequences, listed by entry. Tags and fused reporters are not part of them. Lines headed by an entry give the natural chain unless they say otherwise; changes in a name come on top.
UniProt Q8BGY9: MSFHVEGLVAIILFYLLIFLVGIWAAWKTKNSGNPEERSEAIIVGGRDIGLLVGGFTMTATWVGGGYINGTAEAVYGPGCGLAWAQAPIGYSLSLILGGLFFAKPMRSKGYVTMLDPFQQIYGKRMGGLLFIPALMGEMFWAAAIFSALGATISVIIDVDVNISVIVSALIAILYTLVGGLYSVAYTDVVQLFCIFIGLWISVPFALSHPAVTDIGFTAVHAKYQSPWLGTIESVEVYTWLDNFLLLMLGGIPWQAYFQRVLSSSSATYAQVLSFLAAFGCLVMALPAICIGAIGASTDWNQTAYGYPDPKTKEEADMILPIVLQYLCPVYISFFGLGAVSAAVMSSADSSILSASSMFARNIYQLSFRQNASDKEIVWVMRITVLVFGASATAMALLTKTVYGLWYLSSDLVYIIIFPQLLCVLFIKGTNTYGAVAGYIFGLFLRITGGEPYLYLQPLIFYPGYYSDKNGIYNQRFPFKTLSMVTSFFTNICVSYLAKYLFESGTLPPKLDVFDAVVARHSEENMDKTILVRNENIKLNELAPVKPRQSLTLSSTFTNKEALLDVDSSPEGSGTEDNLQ

`OCC[N+]1(C2CC2)CC1`: the midpoint of inhibition, the IC50, lay at 3.9 µM.
